The experiment concerns C. albicans JCM1542. To be noted: C. albicans JCM1542, MOPS-RPMI medium, 24 h.

Only a part of the results on these compounds is given; other tests are left out.

Turning to sodium nitroprusside dihydrate, the “morphological change induced in C. albicans” value is given as “completely distinct from those of the copper chelators”.

Source of the values: paper PMC12057359, “Inhibitory effect of copper chelators on the budding in Candida albicans” (Antimicrobial Agents and Chemotherapy, 2025).
